Read-outs that look alike come from different tables or passages of the source.
Assays:
H1047R PIK3CA enzyme = H1047R PIK3CA enzyme (Homo sapiens, UniProt P42336, H1047R); assay: ADP-Glo Biochemical PIK3CA Kinase Assay; details: read-out: ADP-Glo IC50
[1] = system: PIK3CA-mediated AKT phosphorylation in MCF10A cells overexpressing hotspot PIK3CA mutations (including H1047R, E542K, and E545K mutations)
[2] = ADP-Glo biochemical PIK3CA kinase assay

Protein sequences, listed by entry. Tags and fused reporters are not part of them.
UniProt P42336, whole entry H1047R: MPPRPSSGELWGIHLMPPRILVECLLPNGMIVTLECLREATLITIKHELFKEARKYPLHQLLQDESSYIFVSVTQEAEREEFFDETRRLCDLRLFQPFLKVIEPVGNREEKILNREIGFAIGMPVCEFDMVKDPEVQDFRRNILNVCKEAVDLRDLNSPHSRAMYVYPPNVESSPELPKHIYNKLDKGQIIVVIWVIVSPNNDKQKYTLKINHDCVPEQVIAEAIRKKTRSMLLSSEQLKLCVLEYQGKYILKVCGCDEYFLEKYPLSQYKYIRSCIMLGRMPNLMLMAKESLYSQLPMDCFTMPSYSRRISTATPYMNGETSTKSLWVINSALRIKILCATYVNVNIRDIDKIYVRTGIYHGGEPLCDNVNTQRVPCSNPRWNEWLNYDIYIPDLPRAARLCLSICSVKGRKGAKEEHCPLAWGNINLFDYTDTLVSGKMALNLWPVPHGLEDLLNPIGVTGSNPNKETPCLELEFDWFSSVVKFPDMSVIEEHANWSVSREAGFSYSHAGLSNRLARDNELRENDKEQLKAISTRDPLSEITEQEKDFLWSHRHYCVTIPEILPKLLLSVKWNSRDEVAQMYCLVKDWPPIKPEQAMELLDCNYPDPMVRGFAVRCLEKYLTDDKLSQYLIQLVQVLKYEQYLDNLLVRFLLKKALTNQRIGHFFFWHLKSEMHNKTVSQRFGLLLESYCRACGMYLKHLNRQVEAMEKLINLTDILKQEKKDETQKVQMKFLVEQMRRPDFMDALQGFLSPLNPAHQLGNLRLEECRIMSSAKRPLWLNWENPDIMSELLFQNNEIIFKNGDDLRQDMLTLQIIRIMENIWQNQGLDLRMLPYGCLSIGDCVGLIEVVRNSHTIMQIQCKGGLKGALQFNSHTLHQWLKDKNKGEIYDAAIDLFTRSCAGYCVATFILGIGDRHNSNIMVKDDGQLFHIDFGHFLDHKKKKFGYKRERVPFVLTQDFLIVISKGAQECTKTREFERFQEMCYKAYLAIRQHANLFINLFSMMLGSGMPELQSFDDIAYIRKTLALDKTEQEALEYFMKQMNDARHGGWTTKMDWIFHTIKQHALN
UniProt P27986, whole entry partner: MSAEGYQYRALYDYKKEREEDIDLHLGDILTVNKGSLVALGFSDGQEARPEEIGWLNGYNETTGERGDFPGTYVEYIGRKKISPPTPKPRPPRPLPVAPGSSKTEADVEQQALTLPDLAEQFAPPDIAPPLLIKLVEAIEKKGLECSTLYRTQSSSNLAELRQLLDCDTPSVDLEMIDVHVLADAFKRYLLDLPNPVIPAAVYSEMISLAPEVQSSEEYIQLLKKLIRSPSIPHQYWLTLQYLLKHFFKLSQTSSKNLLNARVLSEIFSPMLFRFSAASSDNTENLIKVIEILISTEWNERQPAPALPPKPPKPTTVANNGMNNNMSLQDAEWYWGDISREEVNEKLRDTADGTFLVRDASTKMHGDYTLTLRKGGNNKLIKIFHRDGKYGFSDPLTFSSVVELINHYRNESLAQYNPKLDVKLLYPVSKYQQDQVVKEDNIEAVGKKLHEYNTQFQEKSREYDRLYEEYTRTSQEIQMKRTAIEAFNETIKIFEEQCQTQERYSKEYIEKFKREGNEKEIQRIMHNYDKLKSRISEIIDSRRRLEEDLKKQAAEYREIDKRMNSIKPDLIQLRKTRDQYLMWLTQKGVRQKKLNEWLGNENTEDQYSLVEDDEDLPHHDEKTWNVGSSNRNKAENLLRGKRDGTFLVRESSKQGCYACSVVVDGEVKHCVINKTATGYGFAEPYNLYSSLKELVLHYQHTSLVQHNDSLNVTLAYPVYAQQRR

SMILES | IC50 (H1047R PIK3CA enzyme; [2]) | IC50 [1] | other results
CNC(=O)c1cnc(Nc2ncccc2Cl)c(NC(=O)c2csc3ccccc23)c1 | 1000 to 10000 nM | – | –
Cc1ccccc1Nc1nccnc1NC(=O)c1csc2ccccc12 | 1000 to 10000 nM | – | –
Cc1ccccc1Nc1ncc(C(=O)N[C@@H]2CC[C@H](C(=O)O)C2)cc1NC(=O)c1csc2ccccc12 (relative stereo) | 1000 to 10000 nM | – | –
CNC(=O)c1cnc(Nc2ccccc2C)c(NC(=O)c2cc(F)c(F)c(Cl)c2)c1 | 100 to 500 nM | < 1 µM | –
CNC(=O)c1cnc(Nc2ccccc2C)c(NC(=O)c2cc(C(F)(F)F)ccc2F)c1 | – | 1 to 5 µM | –
CNC(=O)c1cnc(Nc2nccnc2C)c(NC(=O)c2csc3ccccc23)c1 | 1000 to 10000 nM | – | –
Cc1ccccc1Nc1ncc(C(=O)NCc2cocn2)cc1NC(=O)c1cc(F)cc(C(F)(F)F)c1 | – | 1 to 5 µM | –
CNC(=O)c1cnc(Nc2ccccc2C)c(NC(=O)c2cc(OC)nc(C(F)(F)F)c2)c1 | 1000 to 10000 nM | – | –
Cc1ccccc1Nc1ncc(NC2CC3(COC3)C2)cc1NC(=O)c1csc2ccccc12 | 1000 to 10000 nM | – | –
Cc1ccccc1Nc1ncc(C(=O)N[C@H]2C[C@H](C(=O)OC(C)(C)C)C2)cc1NC(=O)c1csc2ccccc12 | 500 to 1000 nM | 36 to 100 µM | –
CNC(=O)c1cnc(Nc2ccccc2C)c(NC(=O)c2cccn(C(F)F)c2=O)c1 | 10000 to 100000 nM | – | –
CNC(=O)c1cnc(Nc2cccc3c2CCO3)c(NC(=O)c2cc(F)cc(C(F)(F)F)c2)c1 | 500 to 1000 nM | – | –
Cc1ccccc1Nc1ncc(C(=O)Nc2cnn(C)c2)cc1NC(=O)c1cc(F)cc(C(F)(F)F)c1 | 100 to 500 nM | 1 to 5 µM | –
Cc1ccccc1Nc1ncc(C(=O)NCC2(O)CC2)cc1NC(=O)c1cc(F)cc(C(F)(F)F)c1 | – | 1 to 5 µM | –
Cc1ccccc1Nc1ncc(C(=O)NC2(C)CS(=O)(=O)C2)cc1NC(=O)c1cc(F)cc(C(F)(F)F)c1 | 1000 to 10000 nM | – | –
COC(=O)c1cnc(Nc2ccccc2C)c(NC(=O)c2cccc(C3(C(F)(F)F)N=N3)c2)c1 | – | – | IC50 (H1047R PIK3CA enzyme): 1000 to 10000 nM
CNC(=O)c1cnc(Nc2ccccc2)c(NC(=O)c2csc3ccccc23)c1 | 100 to 500 nM | 36 to 100 µM | –
CNC(=O)c1cnc(Nc2ccccc2C)c(NC(=O)c2ccc(Cl)c(C(F)(F)F)c2)c1 | 1000 to 10000 nM | – | –
CNC(=O)c1cnc(Nc2cccc3c2OCC3)c(NC(=O)c2cc(F)cc(C(F)(F)F)c2)c1 | 1000 to 10000 nM | – | –
Cc1ccccc1Nc1ncc(-c2ncc[nH]2)cc1NC(=O)c1csc2ccccc12 | 100 to 500 nM | 5 to 10 µM | –
CNC(=O)c1cnc(Nc2cccc3c2OCC3)c(NC(=O)c2csc3ccccc23)c1 | 1000 to 10000 nM | – | –
Cc1ccccc1Nc1ncc(C(=O)NC2(C)CC2)cc1NC(=O)c1cc(F)cc(C(F)(F)F)c1 | – | 5 to 10 µM | –
Cc1ccccc1Nc1ncc(C(=O)N[C@H]2C[C@@H](C(=O)O)C2)cc1NC(=O)c1csc2ccccc12 | 500 to 1000 nM | 10 to 36 µM | –
CNC(=O)c1cnc(Nc2ccccc2C)c(NC(=O)c2cc(Cl)cc(C(F)(F)F)c2)c1 | – | 5 to 10 µM | –

SMILES | IC50 (H1047R PIK3CA enzyme; [2]) | IC50 [1] | other results
CNC(=O)c1cnc(Nc2ccccc2C)c(NC(=O)c2cc(F)c(OC)c(Cl)c2)c1 | 1000 to 10000 nM | – | –
CNC(=O)c1cnc(Nc2ccccc2C)c(NC(=O)C2CCc3ccccc3C2)c1 (centres unmarked) | – | – | IC50 (H1047R PIK3CA enzyme): 10000 to 100000 nM
CNC(=O)c1cnc(Nc2cccc(C)n2)c(NC(=O)c2csc3ccccc23)c1 | 1000 to 10000 nM | – | –
Cc1ccccc1Nc1ncc(S(N)(=O)=O)cc1NC(=O)c1cc(F)cc(C(F)(F)F)c1 | 1000 to 10000 nM | – | –
Cc1ccccc1Nc1ncc(C(=O)N[C@H]2C[C@@H](C(=O)OC(C)(C)C)C2)cc1NC(=O)c1csc2ccccc12 | 1000 to 10000 nM | 10 to 36 µM | –
Cc1ccccc1Nc1ncc(C(=O)NC2COC2)cc1NC(=O)c1cc(F)cc(C(F)(F)F)c1 | 100 to 500 nM | 1 to 5 µM | –
CNC(=O)c1cnc(Nc2cccc3c2CCO3)c(NC(=O)c2csc3ccccc23)c1 | 500 to 1000 nM | – | –
Cc1ccccc1Nc1ncc(C(=O)NCc2ccncn2)cc1NC(=O)c1cc(F)cc(C(F)(F)F)c1 | 100 to 500 nM | 5 to 10 µM | –
Cc1ccccc1Nc1ncc(N2CCC(N)C2)cc1NC(=O)c1cc(F)cc(C(F)(F)F)c1 (centres unmarked) | – | – | IC50 (H1047R PIK3CA enzyme; tested form: formate): 1000 to 10000 nM
CNC(=O)c1cnc(Nc2ccccc2C)c(NC(=O)c2cnc3ccccn23)c1 | 10000 to 100000 nM | – | –
CNC(=O)c1cnc(Nc2ccccc2C)c(NC(=O)c2ccc(Cl)c(F)c2)c1 | 1000 to 10000 nM | – | –
Cc1ccccc1Nc1ncc(C(=O)N(C)C2CS(=O)(=O)C2)cc1NC(=O)c1csc2ccccc12 | 100 to 500 nM | 10 to 36 µM | –
Cc1ccccc1Nc1nc2nncn2cc1NC(=O)c1csc2ccccc12 | – | 1 to 5 µM | IC50 (H1047R PIK3CA enzyme): 500 to 1000 nM
Cc1ccccc1[C@H]1NC(=O)C[C@H]1C(=O)Nc1cc(F)cc(C(F)(F)F)c1 (relative stereo) | 1000 to 10000 nM | – | –
CNC(=O)c1cnc(Nc2ccccc2C)c(NC(=O)c2cc(F)c(C#N)c(F)c2)c1 | 1000 to 10000 nM | – | –
CCCCC(CC)COC(=O)CCSc1cnc(Nc2ccccc2C)c(NC(=O)c2cc(F)cc(C(F)(F)F)c2)c1 (centres unmarked) | 1000 to 10000 nM | – | –
Cc1ccccc1Nc1ncc(C(=O)NCC2CS(=O)(=O)C2)cc1NC(=O)c1cc(F)cc(C(F)(F)F)c1 | 1000 to 10000 nM | – | –
Cc1ccccc1Nc1ncc(C(=O)NCC(F)F)cc1NC(=O)c1cc(F)cc(C(F)(F)F)c1 | 100 to 500 nM | 10 to 36 µM | –
Cc1ccccc1Nc1ncc(S(C)(=O)=O)cc1NC(=O)c1cc(F)cc(C(F)(F)F)c1 | 100 to 500 nM | 1 to 5 µM | –
CNC(=O)c1cnc(Nc2ccccc2C)c(NC(=O)c2cc(F)c(F)c(OC)c2)c1 | – | 1 to 5 µM | –
CNC(=O)c1cnc(N2CCCCC2CCO)c(NC(=O)c2cc(F)cc(C(F)(F)F)c2)c1 (centres unmarked) | – | – | IC50 (H1047R PIK3CA enzyme): 1000 to 10000 nM
COc1cc(-c2cnc(Nc3ccccc3C)c(NC(=O)c3cc(F)cc(C(F)(F)F)c3)c2)ccn1 | – | 1 to 5 µM | IC50 (H1047R PIK3CA enzyme): 500 to 1000 nM
CNC(=O)c1cnc(Nc2ccc(C)cn2)c(NC(=O)c2csc3ccccc23)c1 | 1000 to 10000 nM | – | –
Cc1ccccc1Nc1ncc(C(=O)N[C@H]2C[C@@H](C(=O)N(C)C)C2)cc1NC(=O)c1csc2ccccc12 [I-694] | 1000 to 10000 nM | – | –

Reference: patent US20250090540A1, “PI3K-ALPHA INHIBITORS AND METHODS OF USE THEREOF” (Relay Therapeutics, Inc., priority 2021, published 2025)
